Data published in US11312940B2, “Progenitor cells and methods for preparing and using the same” (University of Louisville Research Foundation, Inc., priority 2015, dated 2022).

Legend:
UCB-derived MSCs = test: Transwell chemotactic migration assay, UCB-MSCs; type: cell-based, human; conditions: FSH 10 IU/mL, 48 hours
Procedure: The Transwell migration assay was performed as follows. UCB-derived HSPCs were rendered quiescent by incubation in RPMI medium supplemented with 0.5% BSA for 5 hours at 37° C. and then seeded at a density of 10×10^4 cells/100 μL per insert into the upper chambers of Transwell polycarbonate membrane inserts with 8-μm pore size (COSTAR™ TRANSWELL™; Corning Costar, Corning, N.Y., United States of America). The lower modified Boyden's chambers contained different concentrations of FSH (2-20 IU/mL), LH (2-20 IU/mL), prolactin (0.5-5 μg/mL), estradiol (0.1-1 μM), or progesterone (0.1-1 μM). FBS (10%) and BSA (0.5%) in RPMI 1640 medium were used as positive and negative controls, respectively. After 3 hours of stimulation at 37° C., the migrated cells were collected from the lower chambers and then scored using fluorescence-activated cell sorting (FACS) analysis. For UCB-MSC chemotaxis, cells were detached with 0.25% trypsin, starved for 24 hours, and then seeded into the upper gelatin-coated (0.5%) inserts at a density of 7×10^4 cells/insert in 100 μL. […] The cells that had migrated to the lower side of the membrane were fixed and stained with the FISHER HEALTHCARE™ PROTOCOL™ HEMA 3™ brand staining protocol (Fisher Scientific, Pittsburgh, Pa., United States of America) according to the manufacturer's instructions and then counted using an inverted microscope.

human MSCs = test: Adhesion of MSCs to fibronectin; type: cell-based
Procedure: UCB-derived HSPCs and MSCs were made quiescent for 5 hours and 8 hours, respectively, with 0.5% BSA in a humidified atmosphere of 5% CO2 at 37° C. Next, cells were stimulated with FSH (10 IU/mL), LH (10 IU/mL), prolactin (2 μg/mL), estradiol (0.1 μM), or 0.5% BSA in RPMI 1640 medium for 5 minutes at 37° C. Cells were added directly onto the protein-coated wells (3×10^3 cells/well) in 96-well plates for 5 minutes. The wells were coated with fibronectin (10 μg/mL; Sigma-Aldrich, St. Louis, Mo., United States of America) overnight at 4° C. and blocked with BSA for 2 hours before starting the experiment. Following stimulation, the plates were vigorously washed 3 times, and adherent cells were counted under an inverted microscope.

[1] = test system: hVEGF2 mRNA in UCB-derived MSCs; test: RQ-PCR of VEGF expression in MSCs; type: cell-based, human; conditions: FSH 10 IU/mL, 12 and 24 hours, versus unstimulated cells
Procedure: To evaluate the role of FSH in the regulation of genes expressed actively in angiogenesis, MSCs were kept in culture, either unstimulated or stimulated with FSH, for 12 to 24 hours. At various time points, the cells were collected, and total RNA was extracted and purified using the RNeasy Mini kit (Qiagen Inc., Germantown, Md., United States of America) after treatment with DNase I (Qiagen Inc., Germantown, Md., United States of America). The mRNA was then reverse-transcribed into cDNA using TAQMAN® Reverse Transcription Reagents (ThermoFischer Scientific Inc., Waltham, Mass., United States of America), according to the manufacturer's instructions. Quantitative assessment of mRNA levels of target genes was performed by RQ-PCR using an APPLIED BIOSYSTEMS® PRISM® Fast 7500 sequence detection system (ThermoFischer Scientific Inc., Waltham, Mass., United States of America). […] The threshold cycle (Ct), the cycle number at which the fluorescence of the amplified gene reached a fixed threshold, was subsequently determined, and the relative quantification of the expression level of target genes was performed with the 2-ΔΔCt method.

HUVECs = test: In vitro angiogenesis (tube-formation) assay; type: cell-based, human; conditions: FSH 10 IU/mL; Matrigel
Procedure: The tube-formation assay was performed on a synthetic BD MATRIGEL® brand basement membrane complex with reduced growth factors (BD MATRIGEL®; BD Bioscience, San Diego, Calif., United States of America). In brief, the BD MATRIGEL® brand basement membrane complex was thawed overnight at 4° C. Twenty-four-well plates were coated with matrix and then polymerized for 1 hour at 37° C. Afterwards, HUVECs (60,000 cells/well) were resuspended in either serum-reduced medium containing 0.5% BSA in DMEM medium (negative control), medium containing FGF2 (50 ng/mL; positive control), CM from unstimulated hUCB-MSCs, medium supplemented with FSH (10 IU/mL), or CM collected from stimulated MSCs with the same concentration of FSH. The cells were seeded on the polymerized BD MATRIGEL® brand basement membrane complex in duplicate and kept in a humidified environment of 5% CO2 at 37° C. After 2 to 4 hours, the cultures were evaluated for capillary-like tube formation, the identical fields in each well were photographed, and the formed tubes in each group were then scored.

[2] = test system: murine BM-purified Sca-1+ cells; test: Signal transduction in murine BM Sca-1+ cells; type: cell-based, mouse; conditions: pituitary SexHs, 5 and 10 minutes, Sca-1+ BMMNCs
Procedure: Cells were kept in RPMI medium containing 0.5% BSA overnight in an incubator to achieve quiescence; then stimulated with FSH (5 IU), LH (5 IU), danazol (4 mg/mL), PRL (1 mg/mL), estradiol (0.1 mM), progesterone (0.1 mM), or vehicle only (0.9% sodium chloride diluted in medium with 0.5% BSA) for 5 or 10 minutes at 37° C.; and finally lysed for 20 min on ice with RIPA Lysis Buffer System (Santa Cruz Biotechnology, Inc., Santa Cruz, Calif.) containing protease and phosphatase inhibitors (Santa Cruz Biotechnology). The concentrations of extracted proteins were measured with the BCA Protein Assay Kit, according to the manufacturer's instructions (Thermo Fisher Scientific), and equal amounts of protein were separated and analyzed for phosphorylation of MAPKp44/42 and AKT (Ser473). Loading of the lanes was evaluated by stripping the blots and reprobing with antibodies against MAPKp44/42 and AKT. All phosphospecific antibodies were purchased from Cell Signaling Technology, Inc. (Danvers, Mass.) The membranes were developed with an AMERSHAM™ ECL™ Western Blotting Detection Reagents kit and exposed to AMERSHAM™ HYPERFILM™ (GE Healthcare Life Sciences, Little Chalfont, Buckinghamshire, United Kingdom).

[3] = test system: Sca-1+/Lin-/CD45- cells (VSELs); test: In vivo BrdU incorporation into BM VSELs; set-up: species or system mouse; conditions: 10-day administration; female and male cells
Procedure: (§1) Normal 2-month-old C57BL/6 mice were exposed to daily injections of FSH (5 IU/mice/day), LH (5 IU/mice/day), PRL (1 mg/mice/1 day), danazol (4 mg/kg/day), and estrogen (20 mg/mouse/day). Hormone treatment was performed for 10 days.
(§2) The following mAbs were employed to stain Lin^−/Sca-1^+/CD45^− and Lin^−/Sca-1^+/CD45^+ cells: biotin-conjugated rat anti-mouse Ly-6A/E (Sca-1, clone E13-161.7), streptavidin-PE-Cy5 conjugate, anti-CD45-APC-Cy7 (clone 30-F11), anti-CD45R/B220-PE (clone RA3-6B2), anti-Gr-1-PE (clone RB6-8C5), anti-TCRαβ-PE (clone H57-597), anti-TCRγζ-PE (clone GL3), anti-CD11b-PE (clone M1/70), and anti-Ter-119-PE (clone TER-119). […]
(§3) Adult C57BL/6 mice (4-8 weeks old; Jackson Laboratory) were intraperitoneally (i.p.) were injected daily with 1 mg of BrdU solution to evaluate whether SexHs affect proliferation of stem cells, and the final injection of BrdU was performed 1 hour before sacrificing the animals (see Grymula et al, 2014). […] Samples were analyzed with a Navios flow cytometer (Beckman Coulter).

[4] = test system: Sca-1+/Lin-/CD45+ cells (HSPCs); test: In vivo BrdU incorporation into BM HSPCs; set-up: species or system mouse; conditions: 10-day administration
Procedure: as §1, §2, §3

BM VSELs = test: Total number of BM VSELs by FACS after SexH administration; type: in vivo, mouse; conditions: 10-day administration; for increase in total number of VSELs/10^6 BMMNCs: male BM
Procedure: as §1
(§4) The following mAbs were employed to stain Lin^−/Sca-1^+/CD45^− and Lin^−/Sca-1^+/CD45^+ cells: biotin-conjugated rat anti-mouse Ly-6A/E (Sca-1, clone E13-161.7), streptavidin-PE-Cy5 conjugate, anti-CD45-APC-Cy7 (clone 30-F11), anti-CD45R/B220-PE (clone RA3-6B2), anti-Gr-1-PE (clone RB6-8C5), anti-TCRαβ-PE (clone H57-597), anti-TCRγζ-PE (clone GL3), anti-CD11b-PE (clone M1/70), and anti-Ter-119-PE (clone TER-119). All mAbs were added at saturating concentrations, and the cells were incubated for 30 minutes on ice, washed twice, and then resuspended for sorting in cell-sorting medium containing 1× Hank's Balanced Salt Solution without phenol red (GIBCO™, a division of Thermo Fisher Scientific Inc., Waltham, Mass.), 2% heat-inactivated fetal calf serum (GIBCO™), 10 mM HEPES buffer (GIBCO™), and 30 U/mL gentamicin (GIBCO™) at a concentration of 5×10^6 cells/mL. Sca-1^+/Lin^−/CD45^− cells (VSELs) and Sca-1^+/Lin^−/CD45^+ cells (HSCs) were isolated according to the gating and sorting strategy described in Zuba-Surma & Ratajczak, 2010 and Suszynska et al, 2014b. Proliferation events in BM-derived VSEL and HSC populations were examined by BrdU incorporation followed by flow cytometry.

BM HSPCs = test: Total number of BM HSPCs by FACS after SexH administration; type: in vivo, mouse; conditions: male and female mice, 10-day administration
Procedure: as §1
as §4, with “Proliferation events in BM-derived VSEL and HSC populations were examined by BrdU incorporation followed by flow cytometry.” left out

Substance	chemoattraction (migration) of UCB-derived MSCs (UCB-derived MSCs)	adhesion of MSCs (human MSCs)	expression of VEGF (mRNA) [1]	tube formation by HUVECs (HUVECs)	MAPKp42/44 phosphorylation [2]	BrdU incorporation response of Sca-1+/Lin-/CD45- cells (ranking) [3]	increase in percentage of BrdU+ Sca-1+/Lin-/CD45+ cells (ranking) [4]	increase in total number of VSELs/10^6 BMMNCs (BM VSELs)	increase in BM HSPCs/10^6 BMMNCs (ranking) (BM HSPCs)	increase in total number of VSELs/10^6 BMMNCs (ranking) (BM VSELs; female mice)
follicle-stimulating hormone [FSH]	strongly chemoattracted	slightly enhanced adhesion	strongly upregulated	significantly enhanced	strongest stimulation	highest response	highest increases	about 2.5 fold	highest stimulatory effect	–
luteinizing hormone [LH]	–	–	–	–	–	highest response	highest increases	about 2.5 fold	highest stimulatory effect	most effective
